Several values for one entry are separate records, joined by “and”; a condition that tells them apart may be missing. Equal values may be shown once. The entries are a selection whose mix differs from that of the whole data set. Activity calls are given as the source filed them. The call rests on the fitted dose curve; in most records, active means well fitted activation curve with a large enough effect; inconclusive means small, poorly fitted or top-dose-only effect; inactive means no such curve, though single readings can be large or run the other way.
These compounds were tested against Pyruvate kinase PKM (Homo sapiens) (UniProt P14618) (assay: qHTS Assay for Activators of Human Muscle isoform 2 Pyruvate Kinase). Conditions: purified PKM2, Kinase-Glo ATP luminescence, 0% is enzyme alone, no compound; at 57.5 µM (top of the series).
Source text: NIH Chemical Genomics Center [NCGC] Matthew G. Vander Heiden, M.D., Ph.D. [Harvard Medical School, 77 Avenue Louis Pasteur, Boston, MA 02115] MLPCN Grant: 1 R03 MH085679-01 NCGC Assay Overview: Human pyruvate kinase muscle 2 (hPK-M2) enzyme was supplied as a highly purified (>95% pure) preparation from Harvard Medical School and assayed for its ability to generate ATP from ADP using phosphoenolpyruvate (PEP) as a substrate. ATP generation was detected in a coupled reaction by luciferase-mediated luminescence, an ATP-dependent process. […] The enzyme was assayed at an intermediate level of activity to screen for both inhibitors and activators.
NCGC Assay Protocol Summary: Three uL of substrate mix (at r.t.) in assay buffer (50 mM Imidazole pH7.2, 50 mM KCl, 7 mM MgCl2, 0.01% Tween 20, 0.05% BSA) was dispensed into white solid bottom 1,536 well microtiter plates so that the final concentrations of substrates in the assay were 0.1 mM ADP and 0.5 mM PEP. 23 nL of compound were delivered by a pin tool and 1 uL of enzyme mix in assay buffer (4 degree Celsius) was added. Plates were incubated at room temperature for 1 hour. Two uL of detection mix (Kinase-Glo, Promega; at 4 degree Celsius protected from light) was added and luminescence read by a ViewLux (Perkin Elmer) at 5 second exposure/plate. Data were normalized to the uninhibited and AC100 inhibition (no enzyme). To monitor activation, the first column contained a titration of the activator, NCGC00031955-01 (16-point 1:2 dilutions in duplicate starting at 57 uM) and the first 16 rows of column 4 contained 57 uM of NCGC00031955-01.
Further: nearly all actives have a fitted effect of over 55% in size.
On the % scale 0 is the no-effect control and ±100 the full control effect.

Protein sequences, listed by entry. Tags and fused reporters are not part of them.
UniProt P14618, whole entry, looked up: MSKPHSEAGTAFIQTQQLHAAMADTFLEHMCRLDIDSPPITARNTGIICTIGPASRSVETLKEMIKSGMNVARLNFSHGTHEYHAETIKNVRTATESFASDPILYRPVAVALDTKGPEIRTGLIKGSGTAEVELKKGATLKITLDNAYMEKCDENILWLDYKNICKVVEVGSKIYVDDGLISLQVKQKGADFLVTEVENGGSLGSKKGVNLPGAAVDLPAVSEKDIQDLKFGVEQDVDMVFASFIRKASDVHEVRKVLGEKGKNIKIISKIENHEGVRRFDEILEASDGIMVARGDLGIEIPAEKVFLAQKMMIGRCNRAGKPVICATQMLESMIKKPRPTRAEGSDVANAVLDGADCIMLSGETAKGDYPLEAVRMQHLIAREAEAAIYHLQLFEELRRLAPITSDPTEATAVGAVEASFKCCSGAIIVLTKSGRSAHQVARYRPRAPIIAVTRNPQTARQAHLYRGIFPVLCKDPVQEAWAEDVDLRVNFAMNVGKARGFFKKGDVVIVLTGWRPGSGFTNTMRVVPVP

| Structure (SMILES) | activation |
| --- | --- |
| c1nnnn1CCn1cnnn1 | inactive: 1.34% |
| CC(C)C(=O)NC(Sc1ccccc1)C(Cl)(Cl)Cl (stereo not given) | inactive: -1.61% |
| O=P(Nc1nccs1)(c1ccccc1)c1ccccc1 | inactive: -9.23% |
| O=P(Nc1nc2ccccc2s1)(c1ccccc1)c1ccccc1 | inactive: 1.85% |
| C[C@H]1OP(=O)(Oc2ccccc2)[C@H](O)[C@H](O)[C@H]1N=[N+]=[N-] (stereo not given in full) | inactive: 5.54% |
| O=P(Nc1ccccn1)(c1ccc(Br)cc1)c1ccc(Br)cc1 | inactive: -8.65% |
| O=C(OC1CN2CCC1CC2)c1cccc(Cl)c1 (stereo not given) | inactive: -0.773% |
| Nc1ccc([As](=O)(O)c2ccc([N+](=O)[O-])cc2)cc1 | inactive: -4.77% |
| C(Cc1nn[nH]n1)Cc1nn[nH]n1 | inactive: -16.8% |
| O=[As](O)(c1ccccc1)c1ccc(O)cc1 | inactive: -0.164% |
| O=[N+]([O-])c1ccc(O)c(/C=N/Nc2ccc([N+](=O)[O-])cc2[N+](=O)[O-])c1 | inactive: -8.37% |
| O=[N+]([O-])c1ncn(CCn2cnc([N+](=O)[O-])n2)n1 | inactive: 0.199% |
| CC(=O)NC(SC(=S)N(C)C)C(Cl)(Cl)Cl (stereo not given) | inactive: -0.846% |
| c1ccc(-c2nn[nH]n2)c(-c2nn[nH]n2)c1 | inactive: -0.85% |
| CCOC(=O)NC(Sc1ccccc1)C(Cl)(Cl)Cl (stereo not given) | inactive: 3% |
| Cc1ccc(NP(=O)(Oc2cccc(C)c2)Oc2cccc(C)c2)nc1 | inactive: -12.5% |
| CCNC(=S)/N=C(\N)N[N+](=O)[O-] | inactive: 2.64% |
| O=C(NC1CCS(=O)(=O)C1)NP(=S)(Oc1ccccc1)Oc1ccccc1 (stereo not given) | inactive: 0.0363% |
| Cc1ccccc1OP(=O)(Nc1ccccn1)Oc1ccccc1C | inactive: -3.58% |
| CN(C)C(=O)Oc1noc2ccccc12 | inactive: -6.88% |
| O=c1c2cc([N+](=O)[O-])ccc2[nH]c2c([N+](=O)[O-])cc([N+](=O)[O-])cc12 | inactive: -0.509% |
| CCC(=O)N1C2C3N(C(=O)CC)C1C1N(C(=O)CC)C(C(N1C(=O)CC)N3C(=O)CC)N2C(=O)CC | inactive: 5.45% |
| COC(=O)c1cc2c(s1)N=C(c1ccccc1)N(C)P2(=O)N1CCOCC1 (stereo not given) | inactive: -4.19% |
| Cc1ccc(OP(=O)(Nc2ccccn2)Oc2ccc(C)cc2)cc1 | inactive: 9.61% |
| CC(=O)NC(SC(=S)N(CC(C)C)CC(C)C)C(Cl)(Cl)Cl (stereo not given) | inactive: 0.956% |

| Structure (SMILES) | activation |
| --- | --- |
| CC(C)(C)C(=O)NC(Sc1ccccc1)C(Cl)(Cl)Cl (stereo not given) | inactive: -6.76% |
| O=P1(Nc2nc3ccc(Cl)cc3s2)COc2ccccc2O1 (stereo not given) | inactive: -4.43% |
| CCOc1ccc(C2=NCC(CBr)S2)cc1 (stereo not given) | inactive: 0.205% |
| CC(=O)Nc1ccc(Oc2c([N+](=O)[O-])cc([N+](=O)[O-])cc2[N+](=O)[O-])cc1 | inactive: 7.26% |
| C[C@@H]1C=CCP(=O)(Oc2ccccc2)O1 (stereo not given in full) | inactive: 11.3% |
| C[C@H]1OP(=O)(Oc2ccccc2)C[C@@H]2O[C@@H]21 (stereo not given in full) | inactive: 5.55% |
| Clc1ccc(Cl)c(NC2=NCC(CBr)S2)c1 (stereo not given) | inactive: 4.72% |
| CN1CCCC(OC(=O)C(c2ccccc2)c2ccccc2)C1 (stereo not given) | inactive: -3.99% |
| COc1ccccc1OP(=O)(Nc1ccc(C)cn1)Oc1ccccc1OC | inactive: 5.51% |
| Cc1ccc(OP(=O)(Nc2nccs2)Oc2ccc(C)cc2)cc1 | inactive: -0.858% |
| Cc1ccc(N/C(=N/P(=O)(N2CCOCC2)N2CCOCC2)N2CCOCC2)cc1 | inactive: 4.09% |
| NC(=O)c1cc([N+](=O)[O-])cc([N+](=O)[O-])c1N | inactive: -16% |
| Oc1ccccc1CNc1ccccn1 | inactive: -0.109% |
| Cc1c2non([O-])c-2c(C)[n+](=O)[n+]1[O-] | inactive: -3.39% |
| O=C(NC(Sc1ccncn1)C(Cl)(Cl)Cl)c1ccccc1 (stereo not given) | inactive: -2.6% |
| CC(C)CC(=O)NC(Sc1ccc(Cl)cc1)C(Cl)(Cl)Cl (stereo not given) | inactive: 1.54% |
| Nc1cc(N)c2nonc2c1[N+](=O)[O-] | inactive: 1.98% |
| CCOP(=O)(Nc1ccccc1)OCC | inactive: 3.96% and inactive: 3.25% |
| Cc1cc(SC(NC(=O)c2ccc(F)cc2)C(Cl)(Cl)Cl)ncn1 (stereo not given) | inactive: -17.4% |
| Cc1ccc(NP(=O)(Oc2ccccc2F)Oc2ccccc2F)nc1 | inactive: 4.19% |
| O=P(Nc1nc2ccc(Cl)cc2s1)(c1ccccc1)c1ccccc1 | inactive: 0.0364% |
| O=C(O)c1ccccc1[As](=O)(O)O | inactive: -12.5% |
| CC(=O)Nc1ccc([As](=O)(O)O)cc1 | inactive: -5.26% |
| Nc1cccc2ccc([As](=O)(O)O)cc12 | inactive: 18.7% |
| CCN(N=Nc1nonc1N)c1nonc1N | inactive: -2.95% |

| Structure (SMILES) | activation |
| --- | --- |
| O=C(Nc1cc([As](=O)(O)O)ccc1O)c1ccccc1 | inactive: -3.73% |
| O=C(O)CNc1ccc([As](=O)(O)O)cc1 | inactive: 1.18% |
| O=[N+]([O-])c1cccc(NC2=NCC(CBr)S2)c1 (stereo not given) | inactive: 1.56% |
| CC(C)(C)C(=O)NC(Sc1ccncn1)C(Cl)(Cl)Cl (stereo not given) | inactive: -3.65% |
| Cc1ccc(NP(=O)(Oc2ccccc2)Oc2ccccc2)nc1 | inactive: 1.04% |
| O=[N+]([O-])c1cc([N+](=O)[O-])c(CCNc2ccccc2)c([N+](=O)[O-])c1 | inactive: 3.71% |
| O=[N+]([O-])c1cccc2n[nH]nc12 | inactive: 0.545% |
| CC(=O)N1C2C3N(C(C)=O)C1C1N(C(C)=O)C(C(N1C(C)=O)N3C(C)=O)N2C(C)=O | inactive: -0.0404% |
| COc1ccc(C2=NCC(CBr)S2)cc1 (stereo not given) | inactive: 13.7% |
| CC1CCN(C(=O)Oc2c(Cl)cc(Cl)c3cccnc23)CC1 | inactive: -5.45% |
| CC(C)=N/N=C(\N)N[N+](=O)[O-] | inactive: -27.4% |
| CN(C)C(=O)OCCc1n(C)cc[n+]1C | inactive: -4.42% |
| CCN(/C(=N/P(=O)(N1CCOCC1)N1CCOCC1)N1CCOCC1)c1ccc(OC)cc1 | inactive: -1.78% |
| Nc1ccc([As](=O)(O)c2ccc(N)cc2)cc1 | inactive: 2.92% |
| C[N+]1=C2C=CC=CC=C2SC12C([N+](=O)[O-])=CC([N+](=O)[O-])=C[C-]2[N+](=O)[O-] (stereo not given) | inactive: -2.65% |
| O=C(COc1ccccc1)OC1CN2CCC1CC2 (stereo not given) | inactive: -1.03% |
| COP1(=S)c2c(C)nn(CCC#N)c2N=C(c2ccc(F)cc2)N1C (stereo not given) | inactive: -13.3% |
| CCC(C)N(CC(C)C)C(=S)SC(NC(C)=O)C(Cl)(Cl)Cl (stereo not given) | inactive: -17.2% |
| CCOC(=O)c1ccc(NC(=O)C(C)(CCl)SC)cc1 (stereo not given) | inactive: 0.0419% |
| CCCCOc1ccc(C(=O)NCC2(N3CCCCC3)CCCCC2)cc1OC | inactive: -0.258% |
| Cc1cc(SC(NC(=O)c2ccccc2)C(Cl)(Cl)Cl)nc(C(C)C)n1 (stereo not given) | inactive: 2.72% |
| CCOC(=O)Nc1ccc([As](=O)(O)O)c(O)c1 | inactive: -2.99% |
| O=P(Nc1ccccn1)(c1cccc2ccccc12)c1cccc2ccccc12 | inactive: -0.0234% |
| Cc1cc(SC(NC=O)C(Cl)(Cl)Cl)ncn1 (stereo not given) | inactive: -28.5% |
| O=[N+]([O-])c1ccc(Nc2ccc(Oc3ccc([N+](=O)[O-])cc3[N+](=O)[O-])cc2)c([N+](=O)[O-])c1 | inactive: -0.862% |

| Structure (SMILES) | activation |
| --- | --- |
| CCOC(=O)Nc1cccc([As](=O)(O)O)c1 | inactive: 0.254% |
| Cc1ccc(OP(=O)(Nc2ccc([N+](=O)[O-])cn2)Oc2ccc(C)cc2)cc1 | inactive: -0.504% |
| Cc1ccc2nc3c(c(C)c2c1)CC(C(Cl)Cl)S3 (stereo not given) | inactive: -17.5% |
| C[As](=O)(O)c1cccc(C(=O)O)c1 | inactive: -1.94% |
| O=[As](O)(c1ccc(O)cc1)c1ccccc1O | inactive: 1.86% |
| CCN(CC)C(=S)SC(NC=O)C(Cl)(Cl)Cl (stereo not given) | inactive: -5.96% |
| CC(C)NC(=O)NP(=O)(Oc1ccccc1)Oc1ccccc1 | inactive: 2.45% |
| O=[N+]([O-])c1cc([N+](=O)[O-])c(-c2ccn[nH]2)s1 | inactive: 2.7% |
| ClCCSc1nnc(-c2cccnc2)o1 | inactive: 1.66% |
| CC(C)c1ccc(OP(=O)(Nc2ccccn2)Oc2ccccc2F)cc1 (stereo not given) | inactive: 0.666% |
| COc1ccc2nc(NP(=O)(c3ccccc3)c3ccccc3)sc2c1 | inactive: -0.804% |
| COc1cc(I)ccc1[As](=O)(O)O | inactive: 0.477% |
| Cc1c2c(nc3ccccc13)SC(C(Cl)Cl)C2 (stereo not given) | inactive: -2.1% |
| O=C(OC1CN2CCC1CC2)C12CC3CC(CC(C3)C1)C2 (stereo not given) | inactive: 5.24% |
| Cc1cc(=O)[nH]c(N[N+](=O)[O-])n1 | inactive: -27% |
| COc1ccc(N/C(=N/P(=O)(N2CCOCC2)N2CCOCC2)N2CCOCC2)cc1 | inactive: 1.77% |
| O=[As](O)(c1cccc(O)c1)c1cccc(O)c1 | inactive: -2.62% |
| Cc1cccc(OCC(=O)OC2CN3CCC2CC3)c1 (stereo not given) | inactive: -6.44% |
| O=C(OC1CN2CCC1CC2)c1ccc(Cl)cc1 (stereo not given) | inactive: -2.38% |
| COc1cc(C(=O)NCC2(N3CCOCC3)CCCCC2)cc(Cl)c1OC(C)C | inactive: -0.83% |
| O=[As](O)(O)c1cccnc1 | inactive: -1.42% |
| CS(=O)(=O)c1ccc(Cl)c(NC(=O)COC(=O)C(O)(c2ccccc2)c2ccccc2)c1 | inactive: -8.19% |
| COc1cc(C2NCCC3(OCCO3)C2(C)C)cc(OC)c1OC (stereo not given) | inactive: 2.77% |
| CCOP(=O)(Nc1cccc2ccccc12)OCC | inactive: -0.0739% |
| Nc1cccc2c([As](=O)(O)O)cccc12 | inactive: -0.525% |

— PubChem BioAssay AID1631 (National Center for Advancing Translational Sciences (NCATS), 2009)
